Results as given in patent US6989364B1, “Methods for treating cardiac hypertrophy by administering IFN-γ” (Genentech, Inc., priority 1998, dated 2006).

B1: IFN-β: fibroblast interferon; other cytokine tested for inhibition of the spreading response (protein, UniProt P01574 22-187, looked up)
Interferon beta: MSYNLLGFLQRSSNFQCQKLLWQLNGRLEYCLKDRMNFDIPEEIKQLQQFQKEDAALTIYEMLQNIFAIFRQDSSSTGWNETIVENLLANVYHQINHLKTVLEEKLEKEDFTRGKLMSSLHLKRYYGRILHYLKAKEYSHCAWTIVRVEILRNFYFINRLTGYLRN

Test system: adult rat cardiac myocytes
Test: Inhibition of PGF2α-induced spreading response of adult myocytes
Type: cell-based
Procedure: FIGS. 1A–1F Inhibition of prostaglandin F2α (PGF2α)-induced spreading response by IFN-γ. Myocytes were pre-incubated with saline vehicle or IFN-γ (500 U/ml) on day of isolation. A second addition of vehicle or IFN-γ was performed 24h after isolation, along with the addition of either vehicle or PGF2α (10^−7 M). After an additional 72 hr incubation, cells were fixed in glutaraldehyde, stained with eosin Y and viewed by fluorescence microscopy. A, B, C Cardiac myocytes after 4 days in culture: control, PGF2α, and PGF2α+IFN-γ, respectively. D, E, F Histographs showing maximum breadth of rod shaped cardiac myocytes versus percent frequency of breadth occurrence. The maximum breadth of rod-shaped cells was determined by fluorescence microscopy and imaging software. At least 200 rod shaped cells from a single experiment were examined per group. […] P<0.001 for all group comparisons.
FIGS. 2A–2E Dose responsive inhibition of PGF2α-induced response by IFN-γ (500–25 U/ml). […] After an additional 72 hr incubation, cells were fixed in glutaraldehyde, stained with eosin Y and viewed under fluorescence. Quantitation of myocyte morphology: A control, B PGF2α, C PGF2α+IFN-γ (25 U/ml), D PGF2α+IFN-γ (100 U/ml), E PGF2α+IFN-γ (500 U/ml). […] The maximum breadth of rod-shaped cells was determined by fluorescence microscopy and imaging software. […]

| Molecule | Ability of other cytokines to inhibit PGF2α induced myocyte spreading |
| --- | --- |
| IL-2: other cytokine tested for inhibition of the spreading response | could not inhibit the spreading response |
| B1 | could not inhibit the spreading response |
